From PMC9489631 (Journal of molecular biology, 2022) come the findings set out here.

The target of this test is TAF-Iβ (Template activating factor-Iβ), full-length (UniProt Q01105-2). Briefly: ITC.

B1: linker histone H1.10, full-length (natural protein, human, UniProt Q92522 1-213, looked up)
chain: MSVELEEALPVTTAEGMAKKVTKAGGSAALSPSKKRKNSKKKNQPGKYSQLVVETIRRLGERNGSSLAKIYTEAKKVPWFDQQNGRTYLKYSIKALVQNDTLLQVKGTGANGSFKLNRKKLEGGGERRGAPAAATAPAPTAHKAKKAAPGAAGSRRADKKPARGQKPEQRSHKKGAGAKKDKGGKAKKTAAAGGKKVKKAAKPSVPKVPKGRK
For the molecule B1, the dissociation constant Kd was around 50 nM and the “stoichiometry N” value came to 1 H1.10 per TAF-Iβ monomer.
